Test results published in patent US10414150B2, “Active-energy-ray-curable composition, composition stored container, two-dimensional or three-dimensional image forming apparatus, method for forming two-dimensional or three-dimensional image, and cured product” (Ricoh Company, Ltd., priority 2015, dated 2019).

Legend:
Female mice = experiment: Skin sensitization test by LLNA (Local Lymph Node Assay) method, SI value; settings: test substance 50.0 w/v % in acetone:olive oil 4:1, 25 μL/auricle, once/day × 3 days, SI less than 3 = negative
[1] = negative = satisfies at least one of (1) LLNA SI less than 3, (2) MSDS, (3) reference; cited from earlier work

Row | Substance | SI value (Stimulation Index) measured by LLNA test (Female mice) | Skin sensitization [1]
1 | Ethyleneoxide-modified trimethylolpropane trimethacrylate [Example B4] | 1.0 | negative
2 | Tricylodecane dimethanol diacrylate [Example B3] | 1.3 | –
